Series [1] relates to NCI 60 cell line screen. The note with it: cited from earlier work.
In series [2] the test system is normal HSCs from healthy allogeneic donors.
Series [3] concerns murine AML cells expressing human MN1. Put plainly: Cytotoxicity assay of murine AML cells expressing MN1. The format is cell-based. Particulars: 72 hours. The source says: (§1) FIG. 1. […] (B) Flow cytometry of Annexin V assay.
(§2) In addition to p53 loss, several other adverse prognostic factors are expressed in the cell lines tested. K562 cells express the fusion gene BCR-ABL that has been implicated in chemotherapy resistance^17 and prognosis in AML^18. THP-1 cells express high levels of MN1^18, shown to confer an adverse prognosis^20-21.

By UniProt entry, the sequences of proteins in these tests, tags left out. Residues count along the entry.
UniProt P04818, 2-313 limits assumed: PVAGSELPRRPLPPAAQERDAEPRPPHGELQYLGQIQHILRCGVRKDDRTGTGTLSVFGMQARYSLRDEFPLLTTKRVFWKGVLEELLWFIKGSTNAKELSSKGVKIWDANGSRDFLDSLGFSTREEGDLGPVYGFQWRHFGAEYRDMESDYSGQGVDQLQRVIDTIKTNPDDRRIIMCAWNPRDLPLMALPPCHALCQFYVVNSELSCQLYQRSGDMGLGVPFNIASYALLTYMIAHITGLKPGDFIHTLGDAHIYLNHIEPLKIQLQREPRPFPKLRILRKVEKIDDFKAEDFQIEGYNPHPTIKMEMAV

The test system of series [4] is murine AML cells expressing p210 BCR-ABL. Put plainly: Cytotoxicity assay of murine AML cells expressing p210 BCR-ABL. It is filed as cell-based. Particulars: 72 hours.
Text: as §1, §2

The subject of series [5] is human leukemia cell lines. The source says:
We chose to use doxorubicin as the anthracycline as it is the best tolerated anthracycline in C57/Bl6 mice^11 and would allow for comparisons between in vivo and in vitro studies.

The subject of series [6] is normal C57/Bl6 mice. Particulars: mouse, in vivo. Here is the method: (§3) FIG. 7. […] Mice were treated in the same manner as the in FIG. 6; sacrificed 72 hours after the last dose; and organs were harvested, fixed, paraffin-embedded, sectioned, and stained. Slides were imaged using a Nikon Eclipse 50i light microscope, magnification as indicated. Photographs of tissues were taken using the NIS Elements D3.10 camera and software system. (B) Bone marrow transplant. […] Ly5.1+C57/Bl6 recipient mice were irradiated to 8 gray and injected with donor cells. After three weeks recipients were harvested and degree of femur engraftment by donor cells was determined by staining with Ly5.2 antibody and analyzed by flow cytometry.
(§4) Normal C57/Bl6 mice were treated with identical dose, schedule and route of each drug as in the efficacy studies (i.e. Day 1, 3, 5 and 7). 72 hours after the last dose, animals were sacrificed, bilateral femoral cells harvested and organs fixed in 10% neutral buffered formalin followed by routine tissue processing and sectioning for hematoxylin and eosin staining. Slides were then reviewed by a veterinary pathologist using a Nikon Eclipse 50i light microscope. Photographs of tissues were taken using the NIS Elements D3.10 camera and software system. For transplant studies Ly5.1+C57/Bl6 recipient animals were irradiated to 8 gray and injected with 1×10^6 femur cells or, when 1×10^6 cells were not isolated, then 90% of all cells isolated by tail vein injection. Three weeks later recipient femoral bone marrow was harvested and stained with APC-conjugated anti-Ly5.2 antibody (BD Pharmingen, San Diego, Calif.) and analyzed by flow cytometry.
(§5) Previous studies have shown that the gastrointestinal (GI) toxicity caused by 5-FU is at least in part mediated by RNA-directed effects^27. […] Three days after the last treatment, animals were sacrificed, bilateral femur marrow cells collected and organs harvested, sectioned, and stained.

For series [7], the system named is normal murine HSCs. Particulars: mouse, in vivo. Here is the method: as §3, §4, §5
In series [8] the target is T1, thymidylate synthase (Homo sapiens, UniProt P04818).
T1 construct: endogenous in cells; host or cells: HL60
Put plainly: TS catalytic activity in treated HL60 cells. It is filed as cell-based. The note with it: 10 nM FdUMP[10]. Here is the method:
FIG. 3. […] (A) TS inhibition assay. […] Activity is plotted as percentage of control.
Cells were exposed to the indicated drug for 8, 16, 24, or 48 hours. Cells were then harvested in 25 mM Tris-HCl, pH 7.4 with Complete Protease Inhibitor Cocktail (Roche), put through 2 freeze/thaw cycles, and vortexed. The lysates were centrifuged at 10,000×g for 10 minutes at 4° C. TS assays were performed in a final volume of 200 μl containing 75 μM 5,10 methylene tetrahydrofolate in 0.5 M NaOH (Schircks Laboratories, Switzerland), 10 μM dUMP, 200,000 dpm of ^3H-dUMP (Moravek Biochemicals), 100 μM 2-mercaptoethanol, and 25 mM KH2PO4, pH 7.4. Cell lysate (400 μg of protein) was added to the reaction buffer. Reactions were incubated at 37° C. for 30 minutes and stopped by addition of 100 μl of 20% TCA, incubated for 5 minutes on ice. 200 μL of activated charcoal solution (10 g activated charcoal, 0.25 g BSA, 0.25 g dextran sulfate, in 100 ml of water) was added, vortexed and maintained at room temperature for 10 minutes. Reactions were centrifuged at 10,000×g for 30 minutes. 200 μL aliquots of the supernatant were read by scintillation counting. All reactions were repeated a minimum of three times.

The test system of series [9] is MR2 cell line (MLL-ENL and NRasG12D) leukemia in C57/Bl6 mice. An excerpt:
FIG. 12. […] C57/Bl6 mice were sublethally irradiated to 4.5 Gy and injected with an MLL-ENL and NRAS syngeneic leukemia. […] P value was obtained by log rank test. […] P value was obtained by log rank test.
The Wake Forest University Institutional Animal Care and Use Committee approved all mouse experiments. Luciferase-tagged leukemia cells were transplanted into 6- to 8-wk-old sublethally irradiated recipient mice (4.5 Gy) by tail-vein injection of 1×10^6 viable cells. Mice were monitored by bioluminescent imaging on day 7. Imaging was performed using an IVIS100 imaging system (Caliper LifeSciences, Hopkinton, Mass.). Mice were injected with 150 mg/kg D-Luciferin (Gold Biotechnology, St. Louis, Mo.), anesthetized with isoflurane, and imaged for 2 min. Chemotherapy was initiated upon detection of clear signals. […] Control animals were injected with PBS. Repeat luciferase imaging was performed on day 6 of treatment.
Recent studies have shown that the bone marrow microenvironment can have a profound effect on chemotherapy response in AML^24. Additionally, the immune system can affect the degree of response to a given therapy in vivo^25. […] This cell line express MLL-ENL and the mutated oncogene, NRas^G12D in conjunction with a luciferase reporter. […] This cell line expresses the FLT3 receptor with an internal tandem duplication (FLT3 ITD) in place of NRas^G12D. […]

On to “10-mer oligonucleotide of 5-fluorodeoxyuridine [FdUMP[10]]”, for which the “potency in the NCI 60 cell line screen relative to 5-FU” value in [1] was 338 fold. Moreover, the “suppression of normal HSC colony formation” value in [2] is on record as “only suppressed HSC colony formation at the highest dose tested”. Also, the “fold change of IC50 vs parental leukemia cells, MN1” value in series [3] turned out to be 2.07 fold. For the same substance, the “fold change of IC50 vs parental leukemia cells, p210 BCR-ABL” value in series [4] turned out to be 1.98 fold. In addition, in series [5], the “increased potency compared to 5-FU” value is given as ~1,000 fold. Further, in [6], the “GI-tract histopathology (small and large intestine)” value was “only mild crypt epithelial apoptosis with mitoses”; the bone marrow histopathology result was “only minimal to mild apoptosis”. The “engraftment of femur cells from treated donors in irradiated recipients” value in series [7] was “engrafted to the same extent as the control animal”. Besides, the TS inhibition entry in series [8] was “profound and prolonged TS inhibition”. For the same substance, in series [9] (300 mg/kg every other day for four doses), the tolerability result is listed as “well tolerated”. The signs of toxicity result in series [9] (300 mg/kg on days 1 and 4) was “no signs of toxicity”.

Values taken from patent publication US9012422B2, “Method of treating acute myelogenous leukemia” (Wake Forest University Health Sciences, priority 2011, dated 2015).
